Test results published in US20250152528A1, “RAPID RELIEF SPRAY” (HALEON US HOLDINGS LLC, priority 2022, published 2025).

## CCN(CC)CC(=O)Nc1c(C)cccc1C [lidocaine free base, lidocaine]
Example 1 composition adjusted to pH=4.0 with more citric acid
  lidocaine crystallization, vial 2: several lidocaine free base crystals
Example 1 composition adjusted to pH=4.5
  lidocaine crystallization, vial 3: no lidocaine free base crystallization was observed
Example 1 composition, vial 1 (pH=3.5), more citric acid
  lidocaine crystallization, vial 1: more lidocaine free base crystals
